Assay: Solubility of ibuprofen salts in saturated solutions at room temperature (HPLC, UV detection)
Excerpt: Zur Bestimmung der Löslichkeit der Ibuprofen-Salze werden bei Raumtemperatur gesättigte Lösungen hergestellt. Ein aliguoter Teil dieser Lösungen wird mit einem mit der Lösung mischbaren Lösungsmittel verdünnt und der Gehalt an Ibuprofen mittels HPLC über eine Reversed-Phase-Säule und UV-Detektion bestimmt.

## Ibuprofen-Calciumsalz
1,2-Propandiol
  Löslichkeit von Ibuprofen-Salzen bei Raumtemperatur: 330 mg Ibuprofen/ml
1,2-Propandiol/Glycerin/Wasser (2/4/3;v/v/v)
  Löslichkeit von Ibuprofen-Salzen bei Raumtemperatur: 7 mg Ibuprofen/ml
1,2-Propandiol/Polyethylenglykol 400/Wasser (5/3/6;v/v/v)
  Löslichkeit von Ibuprofen-Salzen bei Raumtemperatur: 3 mg Ibuprofen/ml
Cabrylic/Capric Triglyceride (Miglyol 810)
  Löslichkeit von Ibuprofen-Salzen bei Raumtemperatur: 0,4 mg Ibuprofen/ml
Caprylic/Capric Triglyceride (Miglyol 812)
  Löslichkeit von Ibuprofen-Salzen bei Raumtemperatur: 0,2 mg Ibuprofen/ml
Ethanol
  Löslichkeit von Ibuprofen-Salzen bei Raumtemperatur: 100 mg Ibuprofen/ml
Ethanol/1,2-Propandiol/Wasser (1/4/4;v/v/v)
  Löslichkeit von Ibuprofen-Salzen bei Raumtemperatur: 12 mg Ibuprofen/ml
Glycerin
  Löslichkeit von Ibuprofen-Salzen bei Raumtemperatur: 20 mg Ibuprofen/ml
Isopropylmyristat
  Löslichkeit von Ibuprofen-Salzen bei Raumtemperatur: 0,3 mg Ibuprofen/ml
Paraffinum supl.
  Löslichkeit von Ibuprofen-Salzen bei Raumtemperatur: < 0,1 mg Ibuprofen/ml
Polyethylenglykol 400
  Löslichkeit von Ibuprofen-Salzen bei Raumtemperatur: 38 mg Ibuprofen/ml
Polyoxyethylen-(7)-glycerin-kokosnußöfettsäure-ester
  Löslichkeit von Ibuprofen-Salzen bei Raumtemperatur: 10 mg Ibuprofen/ml
Polyoxyethylierte Olein-Glyceride (Labrafil M 1944 CS)
  Löslichkeit von Ibuprofen-Salzen bei Raumtemperatur: 37 mg Ibuprofen/ml
Wasser
  Löslichkeit von Ibuprofen-Salzen bei Raumtemperatur: 3 mg Ibuprofen/ml
